This is an account of results in ChEMBL document CHEMBL6096726, “Development of a Second-Generation, In Vivo Chemical Probe for PIKfyve” (J Med Chem, 2025).

In general, share remaining refers to the share of the starting amount still present when the sample was taken. Read a high share remaining as greater stability.

The data set can be described thus: in vitro. Conditions: mouse, liver microsomes. (In general: Liver microsomes are a subcellular fraction often used to study metabolism.)

`CN(C)CC#Cc1ccc2[nH]c(C(C)(C)C)c(-c3ccnc(N)n3)c2c1` registered a fraction remaining at 0.5 h of 46%. To `CC(C)(O)C#Cc1ccc2[nH]c(C(C)(C)C)c(-c3ccnc(N)n3)c2c1` belongs 76%. Next, `Cc1[nH]c2ccc(C#CCN(C)C)cc2c1-c1ccnc(N)n1`: 4.5%; `CC(O)C#Cc1ccc2[nH]cc(-c3ccnc(N)n3)c2c1` (stereo unspecified): 70%; `CCC(C)(O)C#Cc1ccc2[nH]c(C(C)(C)C)c(-c3ccnc(N)n3)c2c1` (stereo unspecified): 45%. `CC(O)C#Cc1ccc2[nH]c(C(C)(C)C)c(-c3ccnc(N)n3)c2c1` (stereo unspecified): the amount remaining at 0.5 h came to 69%. For the compound `CC(=O)NCC#Cc1ccc2[nH]cc(-c3ccnc(N)n3)c2c1`, the share remaining at 0.5 h was 78%. For the compound `CCC(C)(O)C#Cc1ccc2[nH]nc(-c3ccnc(N)n3)c2c1` (stereo unspecified), the amount remaining at 0.5 h is 57%. `CN(C)Cc1ccc(-c2ccc3[nH]cc(-c4ccnc(N)n4)c3c2)cc1`: the share remaining at 0.5 h was determined as 32%. The compound `CN(C)CC#Cc1ccc2[nH]cc(-c3ccncn3)c2c1` gave a fraction remaining at 0.5 h of 2.3%. To `CC(=O)N(C)CC#Cc1ccc2[nH]cc(-c3ccnc(N)n3)c2c1` belongs 48%; to `CN(C)CCC#Cc1ccc2[nH]cc(-c3ccnc(N)n3)c2c1`, 39%. The compound `Nc1nccc(-c2c[nH]c3ccc(C#CCN4CCOCC4)cc23)n1` gave a share remaining at 0.5 h of 29%. `CC(C#Cc1ccc2[nH]cc(-c3ccnc(N)n3)c2c1)N(C)C` (stereo unspecified) registered an amount remaining at 0.5 h of 39%.

Consider `CC(C)(O)C#Cc1ccc2[nH]cc(-c3ccnc(N)n3)c2c1`, for which the fraction remaining at 0.5 h came out at 82%. Compound `CC(O)C#Cc1ccc2[nH]nc(-c3ccnc(N)n3)c2c1` (stereo unspecified) registered an amount remaining at 0.5 h of 53%.
